Binding of CDR-mutated scFvs to a peptide of the spike HR2 region

Reference: Li et al. 2023, doi:10.1038/s41467-023-39022-2. File: FLAb, binding data.

All variants were tested on one target, the spike HR2 peptide PDVDLGDISGINAS (SARS-CoV-2).

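The variants were designed computationally from a first round of random CDR variants and then made and measured. Their group label is 14H_Ctrl (Ctrl: baseline library sampled from a position-specific scoring matrix, with some repeated check sequences). The assay is AlphaSeq: two haploid yeast populations carry antibody and antigen on their surface. After mating in shaken culture at 30 °C for 16 h, diploids were selected and their barcode pairs sequenced. Each replicate has its own calibration line, from reference interactions of the BCL2 family. There are six technical replicates.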

Parent scFv Ab-14: VH joined to VL by a 15-residue (Gly4Ser)3 linker. Changes lie in the heavy chain CDRs alone.
VH: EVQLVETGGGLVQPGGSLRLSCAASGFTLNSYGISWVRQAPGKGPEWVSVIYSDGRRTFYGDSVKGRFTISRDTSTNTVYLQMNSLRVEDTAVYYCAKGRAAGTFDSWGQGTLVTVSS
VL: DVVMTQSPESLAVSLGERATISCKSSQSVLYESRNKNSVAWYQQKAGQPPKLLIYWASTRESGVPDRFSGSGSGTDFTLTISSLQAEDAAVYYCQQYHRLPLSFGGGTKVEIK

Substitutions are numbered in sequence along the VH above, starting at 1 (not Kabat). Values are log10 of the apparent Kd in nM; lower means stronger binding. "n.d." means that the variant was in the library but no mating with the target was seen in that replicate; the authors take this as a sign of poor binding, and no number exists.

changes,"log10 Kd, replicates",signal with controls
G61A+S63F+R100W+F105K,n.d. / n.d. / n.d. / n.d. / n.d. / n.d.,0/18
R56I+F59A+G61L+T104I,n.d. / n.d. / n.d. / n.d. / n.d. / n.d.,0/18
N30D+R56E,n.d. / 2.57 / 1.60 / 0.96 / 2.67 / 0.71,0/18
I51D+R56K+S63E,n.d. / n.d. / n.d. / n.d. / n.d. / n.d.,0/18
G61L+T104L+D106E,n.d. / n.d. / n.d. / n.d. / n.d. / n.d.,0/18
K65L+R100Q,1.07 / n.d. / n.d. / n.d. / 0.55 / 1.92,1/18 (0.75)
T28G+G61M+A101E+F105S,n.d. / n.d. / n.d. / n.d. / n.d. / n.d.,0/18
N30S,n.d. / 2.62 / 2.27 / 1.29 / 1.85 / 3.85,1/18 (3.06)
F59S+F105I,n.d. / n.d. / n.d. / n.d. / n.d. / n.d.,0/18
G26K+A102P,n.d. / n.d. / n.d. / n.d. / n.d. / n.d.,0/18
F27R+T28K+R100Q+F105D+S107D,n.d. / n.d. / n.d. / n.d. / n.d. / n.d.,0/18
S63K+S107T,1.49 / n.d. / n.d. / 0.89 / 1.77 / 1.45,0/18
T28Q+K65R+T104W,n.d. / n.d. / n.d. / n.d. / n.d. / n.d.,0/18
T28M+S31Q+R100S+A102S,n.d. / 0.44 / n.d. / n.d. / n.d. / n.d.,0/18
A102P,1.00 / 1.95 / 1.31 / 1.50 / 1.20 / 1.48,0/18
F59A+A101W+A102M,n.d. / n.d. / n.d. / n.d. / n.d. / n.d.,0/18
T28D+S31E+R100Q+A101F+F105K,n.d. / n.d. / n.d. / n.d. / n.d. / n.d.,0/18
R56Y+A101V,n.d. / 1.66 / 0.36 / 0.92 / n.d. / 2.38,0/18
F105I+D106E,n.d. / n.d. / n.d. / n.d. / n.d. / n.d.,0/18
F27A+K65S+A101T,n.d. / n.d. / 0.97 / n.d. / n.d. / 1.44,0/18
R100N+A101H,n.d. / 1.89 / 1.93 / 1.18 / n.d. / 2.79,1/18 (1.98)
F59S+V64T+S107I,n.d. / n.d. / n.d. / n.d. / n.d. / n.d.,0/18
L29I+G99L+A101T+T104R,n.d. / n.d. / n.d. / n.d. / n.d. / n.d.,0/18
T28W+S31E+T104F,n.d. / n.d. / n.d. / n.d. / n.d. / n.d.,0/18
G61T+K65V,n.d. / n.d. / n.d. / 2.87 / n.d. / n.d.,0/18
R56I+G61S+A102G+T104M,n.d. / n.d. / n.d. / n.d. / n.d. / n.d.,0/18
F27E+I51D+S53A+A102Q+F105A,n.d. / n.d. / n.d. / n.d. / n.d. / n.d.,0/18
L29P+G61D+A102G+D106I,n.d. / n.d. / n.d. / n.d. / n.d. / n.d.,0/18
S31E+K65R+R100E,0.47 / 1.19 / 0.32 / 0.14 / 0.33 / 0.15,0/18
Y52M+G99C,n.d. / n.d. / n.d. / n.d. / n.d. / 2.88,0/18
T28P+S31E+F59E+R100D,1.82 / 2.40 / 1.65 / n.d. / n.d. / n.d.,1/18 (2.12)

From the list, the first 2 with no signal in any replicate:

changes,"log10 Kd, replicates",signal with controls
G61A+S63F+R100W+F105K,n.d. / n.d. / n.d. / n.d. / n.d. / n.d.,0/18
R56I+F59A+G61L+T104I,n.d. / n.d. / n.d. / n.d. / n.d. / n.d.,0/18

The parent sequence was in this pool as ten entries: three were never detected, three once, and four in most replicates, with averages from 0.34 to 2.37. Three control strains display no target. For all heavy chain designs, 1% of the pairings with them gave a signal, with a median of 2.08 and one signal in twenty below 0.84, so weak values seen in few replicates may be background. For each scFv, signals with the empty controls are counted beside the result, with their mean in brackets. The authors averaged sequences with at least three values out of six and counted those with two or fewer as poor binders. Values of this round are not directly comparable with the first-round values of the same sequences.